# Assay results reported in PubChem BioAssay AID602449 (Sanford-Burnham Center for Chemical Genomics, 2012).
# The entries are a selection whose mix differs from that of the whole data set. Calls of active or inactive are those of the source.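 How the source made its calls: active means inhibition of 50% or more, scaled per plate between neutral and stimulator controls; inactive means the rest.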
# Test: mitochondrial permeability transition pore inhibitors, primary screen, biochemical, isolated mouse mitochondria, absorbance (AID 602449);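 further: 0% = DMSO wells given calcium and 100% = 1 mM EGTA wells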
# Settings: Ca2+ swelling absorbance, 30 min, at 10 µM, stronger effect = higher value
row,Structure (SMILES),inhibition
1,C(Cc1nn[nH]n1)Cc1nn[nH]n1,inactive: -0.7%
2,O=P(Nc1ccccn1)(c1ccc(Br)cc1)c1ccc(Br)cc1,inactive: -0.8%
3,CN(C)C1(CNC(=O)c2ccc(Cl)c(S(N)(=O)=O)c2)CCCCC1,inactive: -0.3%
4,Nc1ccc(CCCCOc2ccccc2)cc1,inactive: -0.5%
5,COc1ccc(N)c([N+](=O)[O-])c1[N+](=O)[O-],inactive: 0.6%
6,CC(C)NC[C@H](O)COc1ccc(CC(N)=O)cc1,inactive: -1.6%
7,O=P(Nc1nc2ccccc2s1)(c1ccccc1)c1ccccc1,inactive: 1.8%
8,C[C@H]1OP(=O)(Oc2ccccc2)[C@H](O)[C@H](O)[C@H]1N=[N+]=[N-] (stereo partly drawn),inactive: -0.2%
9,CC(C)C(=O)NC(Sc1ccccc1)C(Cl)(Cl)Cl (stereo not drawn),inactive: 9.4%
10,O=P(Nc1nccs1)(c1ccccc1)c1ccccc1,inactive: 0.2%
11,c1nnnn1CCn1cnnn1,inactive: -0.2%
12,Cc1ccccc1CN(C)C(=O)COC(=O)C(O)(c1ccccc1)c1ccccc1,inactive: -0.4%
13,C[C@@H]1C=CCP(=O)(Oc2ccccc2)O1 (stereo partly drawn),inactive: -1.6%
14,C[C@H]1OP(=O)(Oc2ccccc2)C[C@@H]2O[C@@H]21 (stereo partly drawn),inactive: -0.9%
15,N#C/C(=C\c1ccc(N(CCBr)CCBr)cc1)C(N)=O,inactive: -0.7%
16,CC(=O)c1ccc(N2CC2c2ccncc2)cc1 (stereo not drawn),inactive: -0.2%
17,COC(=O)C1(C)COP(=O)(NCc2ccccc2)OC1 (stereo not drawn),inactive: 1.6%
18,CC(=O)Nc1ccc([As](=O)(O)O)c(O)c1,inactive: 1%
19,CC(=O)Nc1ccc(Oc2c([N+](=O)[O-])cc([N+](=O)[O-])cc2[N+](=O)[O-])cc1,inactive: 8.6%
20,O=P1(Nc2nc3ccc(Cl)cc3s2)COc2ccccc2O1 (stereo not drawn),inactive: 0.5%
21,CCOc1ccc(C2=NCC(CBr)S2)cc1 (stereo not drawn),inactive: 0.5%

row,Structure (SMILES),inhibition
1,CC(C)(C)C(=O)NC(Sc1ccccc1)C(Cl)(Cl)Cl (stereo not drawn),inactive: -0.1%
2,CCc1cc(O)c([N+](=O)[O-])c(C)c1[N+](=O)[O-],inactive: 3.5%
3,O=C(OC1CN2CCC1CC2)c1ccccc1 (stereo not drawn),inactive: -1.6%
4,CCC(=O)N1C2C3N(C(=O)CC)C1C1N(C(=O)CC)C(C(N1C(=O)CC)N3C(=O)CC)N2C(=O)CC,inactive: -3.1%
5,COC(=O)c1cc2c(s1)N=C(c1ccccc1)N(C)P2(=O)N1CCOCC1 (stereo not drawn),inactive: -1.9%
6,CC(=O)NC(SC(=S)N(CC(C)C)CC(C)C)C(Cl)(Cl)Cl (stereo not drawn),inactive: 3%
7,Cc1ccc(OP(=O)(Nc2ccccn2)Oc2ccc(C)cc2)cc1,inactive: 1.4%
8,Cc1ccccc1OP(=O)(Nc1ccccn1)Oc1ccccc1C,inactive: 3.5%
9,CC(NC(=O)COC(=O)C(O)(c1ccccc1)c1ccccc1)c1ccccc1 (stereo not drawn),inactive: -0.4%
10,CN(C)C(=O)Oc1noc2ccccc12,inactive: 2.6%
11,O=c1c2cc([N+](=O)[O-])ccc2[nH]c2c([N+](=O)[O-])cc([N+](=O)[O-])cc12,active: 104%
12,c1ccc(-c2nn[nH]n2)c(-c2nn[nH]n2)c1,inactive: -1.4%
13,Cc1ccc(NP(=O)(Oc2cccc(C)c2)Oc2cccc(C)c2)nc1,inactive: 2.7%
14,CCNC(=S)/N=C(\N)N[N+](=O)[O-],inactive: -0.9%
15,O=C(NC1CCS(=O)(=O)C1)NP(=S)(Oc1ccccc1)Oc1ccccc1 (stereo not drawn),inactive: -0.2%
16,O=P1(N(CCCl)CCCl)OCCC2CCCCN21 (stereo not drawn),inactive: -2.1%
17,Nc1cccc2ccc([As](=O)(O)O)cc12,inactive: -1.5%
18,CCN(N=Nc1nonc1N)c1nonc1N,inactive: -12.8%
19,CN(C)P(=O)(N(C)C)n1c(Nc2ccccc2)nnc1-c1ccccc1,inactive: -0.4%
20,O=P(Nc1nc2ccc(Cl)cc2s1)(c1ccccc1)c1ccccc1,inactive: 26%
21,O=C(O)c1ccccc1[As](=O)(O)O,inactive: 0.4%

row,Structure (SMILES),inhibition
1,CC(=O)Nc1ccc([As](=O)(O)O)cc1,inactive: -0.9%
2,CC(C)NCC(O)COc1ccc(CC(N)=O)cc1 (stereo not drawn),inactive: 0.6%
3,CCCC1OP(N)(=O)OCC1CC (stereo not drawn),inactive: -2.6%
4,CCOP(=O)(Nc1ccccc1)OCC,inactive: -6.3%
5,Cc1cc(SC(NC(=O)c2ccc(F)cc2)C(Cl)(Cl)Cl)ncn1 (stereo not drawn),inactive: 0.4%
6,Cc1ccc(NP(=O)(Oc2ccccc2F)Oc2ccccc2F)nc1,inactive: 2%
7,CN(C(=O)Cc1ccc(Cl)c(Cl)c1)[C@H]1CCCC[C@@H]1N1CCCC1,inactive: 2.7%
8,Oc1ccccc1CNc1ccccn1,inactive: -1.1%
9,O=C(NC(Sc1ccncn1)C(Cl)(Cl)Cl)c1ccccc1 (stereo not drawn),inactive: 1.8%
10,CC(C)CC(=O)NC(Sc1ccc(Cl)cc1)C(Cl)(Cl)Cl (stereo not drawn),inactive: 3.8%
11,Nc1cc(N)c2nonc2c1[N+](=O)[O-],inactive: 1.8%
12,O=[N+]([O-])C1C(O)C(O)C([N+](=O)[O-])C(O)C1O (stereo not drawn),inactive: 0.1%
13,CN(C(=O)Cc1ccc(Cl)c(Cl)c1)[C@H]1CCCC[C@H]1N1CCCC1,inactive: -2%
14,Cc1ccc(N/C(=N/P(=O)(N2CCOCC2)N2CCOCC2)N2CCOCC2)cc1,inactive: 2.3%
15,NC(=O)c1cc([N+](=O)[O-])cc([N+](=O)[O-])c1N,inactive: 0.1%
16,Clc1ccc(Cl)c(NC2=NCC(CBr)S2)c1 (stereo not drawn),inactive: -1.1%
17,CN1CCCC(OC(=O)C(c2ccccc2)c2ccccc2)C1 (stereo not drawn),inactive: 38.7%
18,COc1ccccc1OP(=O)(Nc1ccc(C)cn1)Oc1ccccc1OC,inactive: -1.3%
19,Cc1ccc(OP(=O)(Nc2nccs2)Oc2ccc(C)cc2)cc1,inactive: 3.1%
20,CCN(/C(=N/P(=O)(N1CCOCC1)N1CCOCC1)N1CCOCC1)c1ccc(OC)cc1,inactive: -0.3%
21,Nc1ccc([As](=O)(O)c2ccc(N)cc2)cc1,inactive: 0.6%

row,Structure (SMILES),inhibition
1,C[N+]1=C2C=CC=CC=C2SC12C([N+](=O)[O-])=CC([N+](=O)[O-])=C[C-]2[N+](=O)[O-] (stereo not drawn),inactive: 12.6%
2,c1cc(-c2nn[nH]n2)ccc1-c1nn[nH]n1,inactive: -1.5%
3,CC1CCN(C(=O)Oc2c(Cl)cc(Cl)c3cccnc23)CC1,inactive: -1.6%
4,CC(C)=N/N=C(\N)N[N+](=O)[O-],inactive: -0.7%
5,CC(C)c1nc(Nc2ccccc2)n(P(=O)(N(C)C)N(C)C)n1,inactive: 0.4%
6,CN(C)C(=O)OCCc1n(C)cc[n+]1C,inactive: 2%
7,COc1ccc(C2=NCC(CBr)S2)cc1 (stereo not drawn),inactive: -2.5%
8,Cc1ccc(NP(=O)(Oc2ccccc2)Oc2ccccc2)nc1,inactive: 0.2%
9,CCc1nc2c(n1)c1c(non1O)c1c2no[n+]1[O-],inactive: 9.6%
10,O=[N+]([O-])c1cc([N+](=O)[O-])c(CCNc2ccccc2)c([N+](=O)[O-])c1,inactive: 15.9%
11,O=[N+]([O-])c1cccc2n[nH]nc12,inactive: 0.6%
12,CC(=O)N1C2C3N(C(C)=O)C1C1N(C(C)=O)C(C(N1C(C)=O)N3C(C)=O)N2C(C)=O,inactive: 0.3%
13,CN1C(C(=O)Nc2ccccn2)=C(O)c2ccccc2S1(=O)=O,inactive: 0.7%
14,O=[N+]([O-])c1ncn(CCn2ncnc2[N+](=O)[O-])n1,inactive: -1%
15,CC(C)(C)C(=O)NC(Sc1ccncn1)C(Cl)(Cl)Cl (stereo not drawn),inactive: 1.1%
16,O=C(O)CNc1ccc([As](=O)(O)O)cc1,inactive: 0.4%
17,O=[N+]([O-])c1cccc(NC2=NCC(CBr)S2)c1 (stereo not drawn),inactive: -0.5%
18,COC(=O)C1(C)COP(=O)(Nc2ccccc2)OC1 (stereo not drawn),inactive: -1%
19,O=P1(N(CCCl)CCCl)OCCCS1 (stereo not drawn),inactive: 0.5%
20,O=C(Nc1cc([As](=O)(O)O)ccc1O)c1ccccc1,inactive: -0.2%
